These results are taken from patent US4758555A, “Method for treating convulsions and epilepsy with organic copper compounds” (priority 1986, dated 1988).

The conditions of this series: in vivo.

SMILES strings stand for the structures.

As for `O=C(O)c1ccccc1[O-].O=C(O)c1ccccc1[O-].[Cu+2]` [Cu(II)(salicylate)2], the “LD50 relative to ED50 for prevention of Metrazol-induced seizures” value is “over 10 times”.
